This passage reports activity change results from PubChem BioAssay AID720553 (National Center for Advancing Translational Sciences (NCATS), 2013).

Each structure is given as a SMILES string. The list shows a part of the results, in another mix than the full data. Calls of active or inactive are those of the source.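 Rule for the calls: active = maximum activity change below -70%; inconclusive = maximum activity change from -70% to -50%; inactive = maximum activity change above -50%.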
% is set by controls: 0 for no effect and ±100 for the full control effect.

The assay has as its system Potassium voltage-gated channel subfamily H member 2, brain isoform KCNH2 3.1 (human). Nature of the assay: qHTS for Inhibitors of KCHN2 3.1: Mutant qHTS. The conditions noted are these: U2OS KCNH2 3.1, thallium flux FluxOr; hits give low values. From the text:
Many antipsychotic drugs that inhibit the neurotransmitter dopamine also bind to hERG1 channel which might help explain their antipsychotic activity but also produces cardiac side effects. The discovery of the novel KCNH2 3.1 isoform offers a potential new target for the development of antipsychotic drugs without cardiac side effects. This proposal will use a high throughput thallium flux assay developed for KCNH2 to screen compounds that modulate the activity of KCNH2 3.1. The wild type KCNH2 channel will also be screened in parallel to help define the selective modulators of this KCNH2 3.1 potassium channel. The resulting compounds will be validated in electrophysiology experiments. The availability of animal models will allow future testing in vivo for effects on memory and other aspects of animal physiology linked with psychosis. NIH Chemical Genomics Center [NCGC] NIH Molecular Libraries Probe Centers Network [MLPCN] MLPCN Grant: MH096539 Assay Submitter (PI): James Barrow, Johns Hopkins University, Lieber Institute for Brain Development
U2OS cells were resuspended in cell media containing 10% fetal calf serum (FCS) at a concentration of 2 million cells / mL. The solution was treated with the mutant (3.1) virus at 1.77 x 10^8 / mL and allowed to incubate at room temperature in the dark. After 4 hours of incubation, DMEM + 10% fetal bovine serum (FBS) was added to the cell solution. Three microliter was then dispensed into a 1536 tissue culture treated black assay plates which were incubated overnight at 37 C. Two microliter of loading buffer (HBSS + HEPES + Red40 dye quencher + FluxOr dye) was added and the assay plates were incubated for 45 min at room temperature in the dark. […] A stimulation buffer was added to the plate and the second kinetic read (2 min) was obtained. The rate constant was calculated from the kinetic reads and normalized to the positive and negative DMSO controls.
A general note: In qHTS, concentration-response curves come from the screen itself.
As for `Clc1n[nH]nc1-c1nn[nH][15n]1`, the activity change was inactive: -17.2%.
To `O=P1(N(CCCl)CCCl)NCCC(C(F)(F)F)O1` (stereo unspecified) belongs inactive: 1.86%; to `CC(C)(C)C(=O)NC(Sc1ncccn1)C(Cl)(Cl)Cl` (stereo unspecified), inactive: 19.5%; to `CCC1=CC2Cc3nc4ccc(Cl)cc4c(N)c3C(C1)C2` (stereo unspecified), inactive: -34%.
For `O=P1(Nc2ccccn2)COc2ccccc2OC1` the value was inactive: 15.6%; for `CCOP(=O)(NC(=NC(C)c1ccccc1)NC(C)c1ccccc1)OCC` (stereo unspecified), inactive: 2.16%.
To `CCOP(=O)(Nc1ccc(C)cn1)OCC` belongs inactive: 6.56%.
For the molecule `CN(CCCl)Cc1cc(Cl)c(NC2=NCCN2)c(Cl)c1`, the activity change is inactive: -5.62%.
To `CC(C)/C=N\N=C(\N)N[N+](=O)[O-]` belongs inactive: -19.3%; to `CC1(CBr)Cn2c(nc3ccccc3c2=O)S1` (stereo unspecified), inactive: 3.59%; to `COc1ccccc1CNC(=O)COC(=O)C(O)(c1ccccc1)c1ccccc1`, inactive: -1.16%.
To `CN(C)C1(CNC(=O)c2ccc(S(C)(=O)=O)cc2)CCCCC1` belongs inactive: 0.508%; to `O=C(/C=C/c1ccccc1)OC1CN2CCC1CC2` (stereo unspecified), inactive: 7.22%; to `CCCC1OP(=O)(Nc2ccccc2)OCC1CC` (stereo unspecified), inactive: -13.3%.
To `Cc1nn(-c2ccccc2)c2c1P(=O)(N1CCOCC1)N(C)C(c1ccccc1)=N2` (stereo unspecified) belongs inactive: 4.65%; to `Cc1ccc(C(=O)OC2CN3CCC2CC3)cc1` (stereo unspecified), inactive: 2.22%; to `CC1CCC(C(C)C)C(OP(=O)(Nc2ccccn2)c2ccccc2)C1` (stereo unspecified), inactive: 3.2%.
In the case of `Nc1cccc([As](=O)(O)c2ccccc2)c1`, the activity change is inactive: 4.94%.
To `O=[As](O)(c1cccs1)c1cccs1` belongs inactive: 13.5%; to `Cc1ccc(OCC(=O)OC2CN3CCC2CC3)cc1` (stereo unspecified), inactive: -4.41%; to `NS(=O)(=O)c1cccc(NC(=O)COC(=O)C(O)(c2ccccc2)c2ccccc2)c1`, inactive: -1.95%.
For `O=P1(Nc2ccc(Br)cn2)COc2ccccc2OC1` the value was inactive: 1.36%; for `O=P1(Nc2ncccn2)COc2ccccc2OC1`, inactive: 6.31%.
To `O=C(O)COc1ccc([As](=O)(O)O)cc1[N+](=O)[O-]` belongs inactive: -7.94%; to `Nc1ccccc1[As](=O)(O)c1ccccc1`, inactive: 14.3%.
Regarding `CCOP1(=S)c2c(C)nn(CCC#N)c2N=C(c2ccccc2F)N1C` (stereo unspecified), the activity change was inactive: 5.9%.
To `O=P(Nc1nccs1)(Oc1ccccc1)Oc1ccccc1` belongs inactive: 10.4%.
For `O=P(Nc1nccs1)(c1ccccc1)c1nc2ccccc2s1` (stereo unspecified) the value was inactive: -23.1%; for `CS(=O)(=O)c1cc([N+](=O)[O-])c2no[n+]([O-])c2c1`, inactive: -4.89%; for `N#CCCN(C(=O)COC(=O)C(O)(c1ccccc1)c1ccccc1)c1ccc(F)cc1`, inactive: 5.46%.
To `CN(C(=O)Cc1ccccc1)[C@@H]1CC[C@]2(CCCO2)C[C@H]1N1CCCC1` belongs inactive: 3.28%; to `CCOP1(=S)c2c(C)nn(CCC#N)c2N=C(c2ccc(F)cc2)N1C` (stereo unspecified), inactive: 3.92%.
In the case of `O=[N+]([O-])c1ccc2c(c1)nnn2O`, the activity change is inactive: -3.95%.
To `CN(C)C(=O)c1cc([N+](=O)[O-])cc2c1-c1c(cc([N+](=O)[O-])cc1[N+](=O)[O-])C2=O` belongs inactive: 0.825%; to `CN(C(=O)Cc1ccc(Cl)c(Cl)c1)[C@H]1CC[C@@]2(CCCO2)C[C@@H]1N1CCCC1`, inactive: -22.4%; to `NC(=O)Nc1ccc([As](=O)(O)O)cc1`, inactive: 1.26%.
For `Cc1cccc(OCC(=O)OC2CN3CCC2CC3)c1` (stereo unspecified) the value was inactive: 18.4%; for `O=[As](O)(c1cccc(O)c1)c1cccc(O)c1`, inactive: 4.73%; for `O=C(OC1CN2CCC1CC2)c1ccc(Cl)cc1` (stereo unspecified), inactive: -4.3%.
For `O=[As](O)(O)c1cccnc1` the value was inactive: 10.6%; for `COc1cc(C(=O)NCC2(N3CCOCC3)CCCCC2)cc(Cl)c1OC(C)C`, inactive: -29.4%; for `CS(=O)(=O)c1ccc(Cl)c(NC(=O)COC(=O)C(O)(c2ccccc2)c2ccccc2)c1`, inactive: -2.31%.
As to `COc1cc(C2NCCC3(OCCO3)C2(C)C)cc(OC)c1OC` (stereo unspecified), the activity change was inactive: 2.11%.
`CCOP(=O)(Nc1cccc2ccccc12)OCC`: the activity change was inactive: 19.4%.
Turning to `Nc1cccc2c([As](=O)(O)O)cccc12`, the activity change was inactive: 0.449%.
As for `Cc1ccc(NCCc2c([N+](=O)[O-])cc([N+](=O)[O-])cc2[N+](=O)[O-])cc1`, the activity change was inactive: -0.997%.
For `CCCOP(=S)(Nc1nc(N)cc(=O)[nH]1)OCCC` the value was inactive: 1.49%; for `O=P1(N(CCCl)CCCl)Nc2ccccc2N1`, inactive: 14.5%.
To `COc1ccc2nc(NP(=O)(c3ccccc3)c3ccccc3)sc2c1` belongs inactive: -2.36%.
For `COc1cc(I)ccc1[As](=O)(O)O` the value was inactive: 13.1%; for `Cc1c2c(nc3ccccc13)SC(C(Cl)Cl)C2` (stereo unspecified), inactive: 31.5%.
`O=C(OC1CN2CCC1CC2)C12CC3CC(CC(C3)C1)C2` (stereo unspecified): the activity change is inactive: -22.8%.
On to `O=[N+]([O-])c1cc(Oc2ccc([N+](=O)[O-])cc2C(F)(F)F)cc([N+](=O)[O-])c1`, for which the activity change is active: -95%.
For `COc1ccc(N/C(=N/P(=O)(N2CCOCC2)N2CCOCC2)N2CCOCC2)cc1` the value was inactive: 1.21%; for `Cc1ccc(OP(=O)(Nc2ccc([N+](=O)[O-])cn2)Oc2ccc(C)cc2)cc1`, inactive: -41.6%.
To `Cc1ccc2nc3c(c(C)c2c1)CC(C(Cl)Cl)S3` (stereo unspecified) belongs inactive: -28.1%.
To `C[As](=O)(O)c1cccc(C(=O)O)c1` belongs inactive: 4.85%; to `O=[As](O)(c1ccc(O)cc1)c1ccccc1O`, inactive: -11.6%.
As for `O=[N+]([O-])c1ccc(-c2cc([N+](=O)[O-])c(O)c([N+](=O)[O-])c2)cc1`, the activity change is inactive: 6.96%.
For `COc1cc(C(=O)NCC2(N3CCOCC3)CCCCC2)ccc1OCC(C)C` the value was inactive: -10.3%; for `CC(C)NC(=O)NP(=O)(Oc1ccccc1)Oc1ccccc1`, inactive: 9.7%; for `O=C(OC1CN2CCC1CC2)c1cccc2[nH]cnc12` (stereo unspecified), inactive: 9.86%.
For `CCN(CC)C(=S)SC(NC=O)C(Cl)(Cl)Cl` (stereo unspecified) the value was inactive: 6.71%.
For `ClCCSc1nnc(-c2cccnc2)o1` the value was inactive: 16.8%.
`COP(=O)(OC)N1CC1c1ccccc1` (stereo unspecified): the activity change was inactive: -5.05%.
For `CCCCOc1ccc(C(=O)NCC2(N3CCCCC3)CCCCC2)cc1OC` the value was inactive: -7.48%.
For `Cc1cc(SC(NC(=O)c2ccccc2)C(Cl)(Cl)Cl)nc(C(C)C)n1` (stereo unspecified) the value was inactive: 26.8%.
To `O=C(O)C(O)c1ccc(N(CCCl)CCCl)cc1` (stereo unspecified) belongs inactive: -35.3%; to `CCOC(=O)Nc1ccc([As](=O)(O)O)c(O)c1`, inactive: 38.1%.
In the case of `CC1CCNP(=O)(N(CCCl)CCCl)O1` (stereo unspecified), the activity change is inactive: -8.87%.
To `Cc1cc(SC(NC=O)C(Cl)(Cl)Cl)ncn1` (stereo unspecified) belongs inactive: 9.43%.
To `O=P(Nc1ccccn1)(c1cccc2ccccc12)c1cccc2ccccc12` belongs inactive: 2.21%.
To `O=[N+]([O-])c1ccc(Nc2ccc(Oc3ccc([N+](=O)[O-])cc3[N+](=O)[O-])cc2)c([N+](=O)[O-])c1` belongs active: -74.8%; to `CCOC(=O)Nc1cccc([As](=O)(O)O)c1`, inactive: -10.5%; to `O=C(O)C(=O)c1ccc(N(CCCl)CCCl)cc1`, active: -149%.
As for `O=C(COc1ccccc1)OC1CN2CCC1CC2` (stereo unspecified), the activity change is inactive: -13.6%.
For `O=C(Nc1ccncc1[N+](=O)[O-])c1ccc([N+](=O)[O-])cc1[N+](=O)[O-]` the value was inactive: 9.52%; for `COP1(=S)c2c(C)nn(CCC#N)c2N=C(c2ccc(F)cc2)N1C` (stereo unspecified), inactive: 5.84%.
For `CCC(C)N(CC(C)C)C(=S)SC(NC(C)=O)C(Cl)(Cl)Cl` (stereo unspecified) the value was inactive: -4.94%; for `O=C(OC1CN2CCC1CC2)c1cccc([N+](=O)[O-])c1` (stereo unspecified), inactive: 4.58%; for `CSc1ccc(Nc2c([N+](=O)[O-])cc([N+](=O)[O-])cc2[N+](=O)[O-])cc1`, inactive: 0.0171%.
For `CCOC(=O)c1ccc(NC(=O)C(C)(CCl)SC)cc1` (stereo unspecified) the value was inactive: 5.15%.
As to `Cc1ccc(NP(=O)(Oc2ccccc2)Oc2ccccc2)nc1`, the activity change was inactive: -1.46%.
For `O=[N+]([O-])c1cc([N+](=O)[O-])c(CCNc2ccccc2)c([N+](=O)[O-])c1` the value was inactive: 4.25%; for `CCc1nc2c(n1)c1c(non1O)c1c2no[n+]1[O-]`, inactive: 5.21%.
For `CC(=O)N1C2C3N(C(C)=O)C1C1N(C(C)=O)C(C(N1C(C)=O)N3C(C)=O)N2C(C)=O` the value was inactive: -9.98%; for `O=[N+]([O-])c1cccc2n[nH]nc12`, inactive: 5.44%; for `COc1ccc(C2=NCC(CBr)S2)cc1` (stereo unspecified), inactive: -6.28%.
For `CC1CCN(C(=O)Oc2c(Cl)cc(Cl)c3cccnc23)CC1` the value was inactive: -19%.
In the case of `c1cc(-c2nn[nH]n2)ccc1-c1nn[nH]n1`, the activity change was inactive: 3.26%.
For `CC(C)c1nc(Nc2ccccc2)n(P(=O)(N(C)C)N(C)C)n1` the value was inactive: -4.68%.
To `CC(C)=N/N=C(\N)N[N+](=O)[O-]` belongs inactive: 23.2%; to `CN(C)C(=O)OCCc1n(C)cc[n+]1C`, inactive: 6.62%.
For `Nc1ccc([As](=O)(O)c2ccc(N)cc2)cc1` the value was inactive: 8.86%; for `C[N+]1=C2C=CC=CC=C2SC12C([N+](=O)[O-])=CC([N+](=O)[O-])=C[C-]2[N+](=O)[O-]` (stereo unspecified), inactive: -0.49%; for `O=C(Nc1cc([As](=O)(O)O)ccc1O)c1ccccc1`, inactive: 3.1%.
As to `O=P1(N(CCCl)CCCl)OCCCS1` (stereo unspecified), the activity change is inactive: -1.06%.
For the molecule `O=C(O)CNc1ccc([As](=O)(O)O)cc1`, the activity change is inactive: -2.87%.
For `COC(=O)C1(C)COP(=O)(Nc2ccccc2)OC1` (stereo unspecified) the value was inactive: -9.21%; for `O=[N+]([O-])c1cccc(NC2=NCC(CBr)S2)c1` (stereo unspecified), inactive: 17.3%.
To `O=[N+]([O-])c1ncn(CCn2ncnc2[N+](=O)[O-])n1` belongs inactive: -4.17%.
